Tested on: A2780
Test: cells
Conditions: Homo sapiens

CC(C)(C)c1cnc(CSc2cnc(NC(=O)Cc3ccc(CNC(CO)CO)cc3)s2)o1
IC50: 30 nM
